Experimental data: patent publication US9315491B2 (DEVELOPMENT CENTER FOR BIOTECHNOLOGY, priority 2009, dated 2016)

How the values were obtained:
PC-3 cells = experiment: Antiproliferation assay (MTS), PC-3; type: cell-based; conditions: Homo sapiens, PC3, 72 hours of drug treatment
Experimental: (1) Antiproliferation Assay
PC-3, U-87 MG, HCC1954 and BT474 cell lines were purchased from the American Type Culture Collection (ATCC, USA). PC-3 was grown in F12K medium (GIBCO) containing 10% FBS. U-87 MG was grown in Eagle's minimum essential medium (MEM, Sigma) supplemented with nonessential amino acids, L-glutamine, sodium pyruvate, and 10% FBS. HCC1954 was grown in RPMI medium (GIBCO) containing 10% FBS. […] All cells were incubated in a humidified atmosphere containing 5% CO2 at 37° C.
Cell lines were inoculated to the wells of a 96-well culture plate with 1000-5000 cells per well. The compounds were prepared and used to treat cells with less than 1% DMSO. After 72 hours of drug treatment, the viability of each cell line was examined by CellTiter 96 Aqueous Non-Radioactive Cell Proliferation Assay (Promega). The living cells were detectable by conversion of MTS into aqueous, soluble formazan. MTS/PMS solution was freshly prepared and 20 μl of MTS/PMS solution was added to each well of the 96-well cultured plate. The assay plate was incubated for 3 hours and the absorbance at 490 nm was measured by EMax ELISA Reader (Molecular Devices). The IC50 values of compounds were determined after carrying out assays at eight serially diluted concentrations of each compound in triplicate, and are the mean of three separate determinations. The results were analyzed using linear regression software (GraphPad Prism 5; GraphPad Software Inc.).

A549 cells = experiment: Antiproliferation assay (MTS), A549; type: cell-based; conditions: Homo sapiens; A549, 72 hours of drug treatment

Row | SMILES | IC50 (PC-3 cells) [nM] | IC50 (A549 cells) [nM]
1 | CCOc1c(C(=O)N2CCOCC2)nc(-c2ccc(NC(=O)Nc3ccccc3)cc2)nc1N1CCOCC1 [MTR-0124, 1-{4-[5-Ethoxy-4-(morpholine-4-carbonyl)-6-morpholin-4-yl-pyrimidin-2-yl]-phenyl}-3-phenyl-urea] | 390 ± 9 | 566 ± 12
2 | COc1cnc(-c2ccc(NC(=O)Nc3ccccc3)cc2)nc1N1CCOCC1 [MTR-0128, 1-[4-(5-Methoxy-4-morpholin-4-yl-pyrimidin-2-yl)-phenyl]-3-phenyl-urea] | 499 ± 45 | 914 ± 29
3 | CCOc1c(C(=O)N2CCCCC2)nc(-c2ccc(NC(=O)Nc3ccccc3)cc2)nc1N1CCOCC1 [MTR-0142, 1-{4-[5-Ethoxy-4-morpholin-4-yl-6-(piperidine-1-carbonyl)-pyrimidin-2-yl]-phenyl}-3-phenyl-urea] | 416 ± 90 | 488 ± 56
4 | CSc1c(Cl)nc(-c2ccc(NC(=O)Nc3cccnc3)cc2)nc1N1CCOCC1 [MTR-0197, 1-[4-(4-Chloro-5-methylsulfanyl-6-morpholin-4-yl-pyrimidin-2-yl)-phenyl]-3-pyridin-3-yl-urea] | 18 ± 1 | 115 ± 2
5 | CCOC(=O)c1nc(-c2ccc(NC(=O)Nc3cccnc3)cc2)nc(N2CCOCC2)c1OCC [MTR-0205, 5-Ethoxy-6-morpholin-4-yl-2-[4-(3-pyridin-3-yl-ureido)-phenyl]-pyrimidine-4-carboxylic acid ethyl ester] | 130 ± 5 | 673 ± 19
6 | CCOC(=O)c1nc(-c2ccc(NC(=O)Nc3ccc(N4CCOCC4)c(F)c3)cc2)nc(N2CCOCC2)c1OCC [MTR-0221, 5-Ethoxy-2-{4-[3-(3-fluoro-4-morpholin-4-yl-phenyl)-ureido]-phenyl}-6-morpholin-4-yl-pyrimidine-4-carboxylic acid ethyl ester] | 327 ± 43 | 710 ± 76
7 | CCOC(=O)c1nc(-c2ccc(NC(=O)Nc3ccc(N4CCOCC4=O)cc3)cc2)nc(N2CCOCC2)c1OCC [MTR-0222, 5-Ethoxy-6-morpholin-4-yl-2-(4-{3-[4-(3-oxo-morpholin-4-yl)-phenyl]-ureido}-phenyl)-pyrimidine-4-carboxylic acid ethyl ester] | 30 ± 7 | 88 ± 17
8 | CSc1cnc(-c2ccc(NC(=O)Nc3cccnc3)cc2)nc1N1CCOCC1 [MTR-0225, 1-[4-(5-Methylsulfanyl-4-morpholin-4-yl-pyrimidin-2-yl)-phenyl]-3-pyridin-3-yl-urea] | 333 ± 24 | 1540 ± 113
9 | CCOC(=O)c1nc(-c2ccc(NC(=O)Nc3ccc(C(=O)N4CCOCC4)cc3)cc2)nc(N2CCOCC2)c1OCC [MTR-0278, 5-Ethoxy-2-(4-{3-[4-(morpholine-4-carbonyl)-phenyl]-ureido}-phenyl)-6-morpholin-4-yl-pyrimidine-4-carboxylic acid ethyl ester] | 39 | 
10 | CSc1c(Cl)nc(-c2ccc(NC(=O)Nc3ccc4oc(=O)[nH]c4c3)cc2)nc1N1CCOCC1 [MTR-0372, 1-[4-(4-Chloro-5-methylsulfanyl-6-morpholin-4-yl-pyrimidin-2-yl)-phenyl]-3-(2-oxo-2,3-dihydro-benzooxazol-5-yl)-urea] |  | 332 ± 20
11 | CCOc1cnc(-c2ccc(NC(=O)Nc3ccc(NS(C)(=O)=O)cc3)cc2)nc1N1CCOCC1 [MTR-0394, N-(4-{3-[4-(5-Ethoxy-4-morpholin-4-yl-pyrimidin-2-yl)-phenyl]-ureido}-phenyl)-methanesulfonamide] |  | 431 ± 10
12 | COc1cnc(-c2ccc(NC(=O)Nc3ccc(S(=O)(=O)N4CCOCC4)cc3)cc2)nc1N1CCOCC1 [MTR-0471, 1-[4-(5-Methoxy-4-morpholin-4-yl-pyrimidin-2-yl)-phenyl]-3-[4-(morpholine-4-sulfonyl)-phenyl]-urea] | 34 ± 2 | 
13 | COc1cnc(-c2ccc(NC(=O)Nc3ccncc3)cc2)nc1N1CCOCC1 [MTR-0472, 1-[4-(5-Methoxy-4-morpholin-4-yl-pyrimidin-2-yl)-phenyl]-3-pyridin-4-yl-urea] | 226 ± 19 | 
